# Results taken from PMC12371506 (ACS Bio & Med Chem Au, 2025).
# Residues, ends and D or L forms follow the SMILES beside them. *: point of attachment. Cbz = O=C(OCc1ccccc1)*; CH2F = FC*
# What was measured:
# THP1 monocytes = assay: TRAIL-induced extrinsic apoptosis in THP1 monocytes; type: cell-based, human; details: 25 μM inhibitor 30 min, then 100 ng/mL TRAIL
# [1] = test system: HCC1806 triple-negative breast cancer cells; assay: TNF-α-induced extrinsic apoptosis in HCC1806 cells; details: 10 μM inhibitor, 24 h
Structure (SMILES),caspase-8-mediated activation of caspases-3/7; caspase-3 and PARP processing (THP1 monocytes),caspase-3 and PARP processing (immunoblot) [1]
CC[C@H](C)[C@H](NC(=O)OCc1ccccc1)C(=O)N[C@@H](CCC(=O)OC)C(=O)N[C@H](C(=O)N[C@@H](CC(=O)OC)C(=O)CF)[C@@H](C)O [zIETD-FMK] (Cbz-IE(OMe)TD(OMe)-CH2F),able to inhibit caspase-3 and PARP processing,able to inhibit caspase-3 and PARP processing
COC(=O)CC[C@H](NC(=O)[C@H](CC(C)C)NC(=O)OCc1ccccc1)C(=O)N[C@@H](Cc1c[nH]cn1)C(=O)N[C@@H](CC(=O)OC)C(=O)CF [zLEHD-FMK] (Cbz-LE(OMe)HD(OMe)-CH2F),able to inhibit caspase-3 and PARP processing,
